Test system: Salmonella typhimurium TA98, TA100, TA1535, TA1537 and Escherichia coli WP2 uvrA
Test: Bacterial reverse mutation assay (Ames test)

## COCCC1CC2CN3CCc4c([nH]c5ccccc45)C(C(=O)OC)(C2)C13.Cl (centres unmarked) [18-MC HCl, 18-Methoxycoronaridine hydrochloride]
GLP, up to 500 μg/plate, with and without metabolic activation
  mutagenic activity: negative
non-GLP, up to 5000 μg/plate, absence or presence of S9
  mutagenic response: did not cause mutagenic response
